# Ab-14 heavy chain CDR variants: yeast mating affinities

Binding partner: SARS-CoV-2 spike HR2 peptide, sequence PDVDLGDISGINAS.

Each scFv is VH, the linker GGGGSGGGGSGGGGS, VL, as in the parent Ab-14, and differs from it in the CDRs of the heavy chain only.
VH: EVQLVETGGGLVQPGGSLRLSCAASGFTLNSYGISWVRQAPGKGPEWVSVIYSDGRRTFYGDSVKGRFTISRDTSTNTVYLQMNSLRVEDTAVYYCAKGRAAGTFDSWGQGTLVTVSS
VL: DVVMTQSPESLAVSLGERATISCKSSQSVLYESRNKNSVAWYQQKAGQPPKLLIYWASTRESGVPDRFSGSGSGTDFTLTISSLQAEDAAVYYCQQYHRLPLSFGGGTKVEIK

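Phage display of a naive human antibody library on the peptide gave the parent. AAYL49 was designed without a model: most single CDR substitutions and a random sample of double and triple ones. The assay is AlphaSeq: two haploid yeast populations carry antibody and antigen on their surface. The frequency of each diploid, read from paired DNA barcodes, reflects how well the two displayed proteins bind. Scores were corrected for input abundance and mapped to Kd with protein pairs of known affinity run in the same pool. The assay was run in three technical replicates.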

Substitutions are numbered in sequence along the VH above, starting at 1 (not Kabat). Values are log10 of the apparent Kd in nM; lower means stronger binding. Where no diploid with the target was found in that replicate, the entry reads "n.d.": below detection, most likely a poor binder, though not proof of it. For reference, the parent read 0.65 as the reference entry and 4.11 (one replicate of three) as a member of this library. Background: pairings of library AAYL49 with three empty control strains gave a value in 15% of cases (median 4.06, 5th percentile 2.83). Values in that range, when seen in few replicates, are hard to tell from nonspecific mating.

changes | log10 Kd (nM) by replicate
S31F/G33K/G103A | n.d. n.d. n.d.
F27K/S53E/G61L | n.d. n.d. n.d.
F27T/V64T/G103A | n.d. n.d. n.d.
S53N/S63W/T104A | n.d. n.d. n.d.
Y32H/D54W/V64W | n.d. 4.41 n.d.
I34P/S35W/I51G | n.d. n.d. n.d.
I34Y/V64N | 4.14 n.d. n.d.
V50A/Y52I/R100V | n.d. n.d. n.d.
L29W/D54I/S63A | n.d. n.d. n.d.
I34N/K65P/A101G | 4.47 n.d. n.d.
F27C/I34G/D106A | n.d. n.d. n.d.
I51H/G55L/K65T | n.d. n.d. n.d.
G55T/T58W/G103I | n.d. n.d. n.d.
L29W/V50Q/G103W | n.d. n.d. n.d.
L29D/A102L/D106G | 2.65 n.d. n.d.
S31M/A102N/G103I | 5.65 3.38 n.d.
S31I/G61S/G103L | n.d. n.d. n.d.
S35P/V50E/S63R | n.d. 4.31 5.61
F27S/S63V/D106A | n.d. n.d. n.d.

Further variants, results first:

log10 Kd (nM) by replicate | changes
n.d. n.d. n.d. | V50W/K65P
1.41 1.31 1.49 | F59S/G99C/A102F
n.d. n.d. n.d. | V50R/D54A/R56P
n.d. 5.34 n.d. | S53N/R56A/R100A
n.d. n.d. n.d. | F27G/S31N/D54M
n.d. n.d. n.d. | Y32R/I51M
4.39 3.54 n.d. | G33R/D54M/K65G
n.d. n.d. n.d. | I34Y/V50G/D106Q
n.d. n.d. n.d. | G33V/G61M/A102F
n.d. n.d. 4.06 | G33T/R57P/G61D
n.d. n.d. n.d. | F59Q/V64K
n.d. n.d. n.d. | L29E/I34P/A101I
n.d. 4.66 n.d. | G33N/I34G/T104L
n.d. 3.40 n.d. | S53T/G55R/S63G
n.d. n.d. n.d. | Y32G/R100S/F105M
n.d. n.d. n.d. | G26M/L29E
5.72 n.d. 5.03 | N30M/Y32K/Y60L
n.d. n.d. n.d. | Y52W/Y60E/G99M
n.d. n.d. n.d. | F27L/S35P/A101N
n.d. n.d. n.d. | Y32N/G99V/A101D

The closing 6 entries, repeated:

| changes | log10 Kd (nM) by replicate |
|---|---|
| Y32G/R100S/F105M | n.d. n.d. n.d. |
| G26M/L29E | n.d. n.d. n.d. |
| N30M/Y32K/Y60L | 5.72 n.d. 5.03 |
| Y52W/Y60E/G99M | n.d. n.d. n.d. |
| F27L/S35P/A101N | n.d. n.d. n.d. |
| Y32N/G99V/A101D | n.d. n.d. n.d. |

The measurements come from Engelhart et al. 2022 (doi:10.1038/s41597-022-01779-4) through the FLAb antibody collection.